Measured values reported in BindingDB's records for doi:10.1021/jm020153s (Purdue University, 2002).

Chains of the proteins cited; added tags and fusions are not shown.
UniProt P14842, whole entry: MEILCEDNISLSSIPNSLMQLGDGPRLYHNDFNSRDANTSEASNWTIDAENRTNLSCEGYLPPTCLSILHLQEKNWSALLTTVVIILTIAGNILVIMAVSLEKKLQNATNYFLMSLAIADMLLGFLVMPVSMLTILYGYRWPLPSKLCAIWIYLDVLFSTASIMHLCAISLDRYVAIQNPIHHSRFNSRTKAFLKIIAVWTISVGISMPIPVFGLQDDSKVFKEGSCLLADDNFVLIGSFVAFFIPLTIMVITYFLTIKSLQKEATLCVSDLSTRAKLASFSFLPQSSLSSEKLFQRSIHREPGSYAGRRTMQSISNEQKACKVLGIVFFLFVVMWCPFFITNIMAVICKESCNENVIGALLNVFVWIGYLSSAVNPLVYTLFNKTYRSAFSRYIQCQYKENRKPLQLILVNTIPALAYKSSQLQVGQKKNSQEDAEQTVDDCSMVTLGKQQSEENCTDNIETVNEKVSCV

Molecular target: 5-hydroxytryptamine receptor 2A (Rattus norvegicus, UniProt P14842)
Assay: Functional potency at the rat 5-hydroxytryptamine 2A receptor as effective concentration EC50 for stimulating Phosphoinositide accumulation

Q: How did the pEC50 turn out when `CCN(CC)C(=O)[C@@H]1C=C2c3cccc4[nH]cc(c34)C[C@H]2N(C)C1` [(4R,7R)-N,N-diethyl-6-methyl-6,11-diazatetracyclo[7.6.1.0^{2,7}.0^{12,16}]hexadeca-1(16),2,9,12,14-pentaene-4-carboxamide] was run?
A: Its pEC50 is 7.82.

pEC50: −log10 of the molar value.
